Each structure is given as a SMILES string.

The chains behind the UniProt entries cited, without tags or fusion partners.
UniProt P53350, whole entry: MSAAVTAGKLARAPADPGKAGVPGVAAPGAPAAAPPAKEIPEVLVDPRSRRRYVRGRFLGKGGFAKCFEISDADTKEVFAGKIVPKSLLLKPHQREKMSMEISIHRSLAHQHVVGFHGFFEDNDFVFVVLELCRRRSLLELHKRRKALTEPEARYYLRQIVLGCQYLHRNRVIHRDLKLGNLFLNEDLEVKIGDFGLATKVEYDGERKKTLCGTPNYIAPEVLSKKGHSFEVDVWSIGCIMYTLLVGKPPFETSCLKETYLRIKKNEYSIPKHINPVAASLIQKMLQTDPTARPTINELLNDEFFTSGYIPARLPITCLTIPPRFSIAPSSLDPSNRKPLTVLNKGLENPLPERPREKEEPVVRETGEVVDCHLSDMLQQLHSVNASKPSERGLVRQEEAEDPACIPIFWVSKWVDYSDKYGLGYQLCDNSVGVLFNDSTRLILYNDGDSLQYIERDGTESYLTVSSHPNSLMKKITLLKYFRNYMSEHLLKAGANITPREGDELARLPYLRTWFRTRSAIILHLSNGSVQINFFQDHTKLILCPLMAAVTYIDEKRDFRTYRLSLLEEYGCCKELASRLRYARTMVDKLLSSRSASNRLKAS

This assay concerns the target T1, GST-PLK1 (Homo sapiens, UniProt P53350).
T1 construct: Full-length, active GST-PLK1 is purified from Sf9 insect cells; made in house; host or cells: Sf9 insect cells
Kind of assay: Biochemical Characterization Assay: GST-PLK1 kinase HTRF assay with GST-p53 substrate. The protocol: Biochemical Characterization Assay
Full-length, active GST-PLK1 is purified from Sf9 insect cells, and full-length GST-p53 is purified from E. coli. Anti-phospho p53 antibody is from Cell Signaling Technology. Europium-conjugated anti-rabbit antibody is from PerkinElmer Life and Analytical Sciences. APC-conjugated anti-GST antibody is from Prozyme.
To assay compounds of the invention, two microliters of test compound (0.6 nM-4 mM) in DMSO or plain DMSO for control wells, 38 microliters of 20 mM HEPES pH 7, 50 mM NaCl, 10 mM MgCl2, 0.5 mM TCEP, 0.1 mM sodium orthovanadate, 0.1 mg/mL BSA, and 0.05% Triton X-100 (Kinase Assay Buffer) are added. […] Six microliters of GST-PLK1 (3 ug/mL) in Kinase Assay Buffer are then added and the solution incubated at 37° C. for 35 minutes. Six microliters of solution containing 43 mM EDTA to stop the reaction and a 1:600 dilution of anti-phospho-p53 antibody in 20 mM HEPES pH 7, 50 mM NaCl, and 0.5 mg/mL BSA (Antibody Binding Buffer) are added and the solution incubated at 37° C. for 30 minutes. […] The HTRF signal is read on an Envision reader from PerkinElmer Life and Analytical Sciences.
In general terms: In TR-FRET formats the signal depends on donor and acceptor labels being close together.

On to `COc1cc(C(=O)NC2CCN(C)CC2)ccc1Nc1ncc2c(n1)N(C1CCCCC1)CCC(=O)N2C` [I-20, 4-(9-Cyclohexyl-5-methyl-6-oxo-6,7,8,9-tetrahydro-5H-pyrimido[4,5-b][1,4]diazepin-2-ylamino)-3-methoxy-N-(1-methyl-piperidin-4-yl)-benzamide], for which the IC50 (as a rule, the concentration at which inhibition is half-maximal) is less than 0.5 µM.
